# Laboratory results from PubChem BioAssay AID602440 (Sanford-Burnham Center for Chemical Genomics, 2012).
# Chains of the proteins cited; added tags and fusions are not shown.
# UniProt Q96LD8, whole entry: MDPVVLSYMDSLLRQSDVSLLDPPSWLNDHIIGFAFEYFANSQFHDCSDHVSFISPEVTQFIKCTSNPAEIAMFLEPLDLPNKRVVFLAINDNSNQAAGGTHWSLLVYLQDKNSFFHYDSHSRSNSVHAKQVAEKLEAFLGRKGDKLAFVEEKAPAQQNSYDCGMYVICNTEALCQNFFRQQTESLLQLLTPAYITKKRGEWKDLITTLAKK
# This is a selection; strong and weak results do not stand in their true shares. Some of these compounds have results that are not shown, active ones among them. Activity calls are given as the source filed them. Cut-off read from the data, not from the text of the source: active = inhibition mostly above about 40% (no sharp cut-off); inactive = mostly below about 27%.
# Molecular target: Sentrin-specific protease 8 (Homo sapiens) (UniProt Q96LD8)
# Assay: human SENP8 protease inhibitors, primary screen, biochemical, fluorescence, Nedd8 protein substrate, uHTS (AID 602440)
# Details: recombinant SENP8, Nedd8 substrate fluorescence; at 20 µM; hits give high values
row,Compound,inhibition
1,CC(C)N1C(=O)CC2(CCN(CCOC(=O)C(O)(c3ccccc3)c3ccccc3)CC2)C1=O,inactive: 13.6%
2,COc1cc(SC)ccc1C(=O)NCC1(N(C)C)CCCCC1,inactive: 29.8%
3,CCN(CC)CC(C)C(C)OC(=O)C(O)(c1ccccc1)c1ccccc1 (stereo unspecified),inactive: 18.8%
4,Cc1ccc(C(=O)NCC2(N3CCCCC3)CCCCC2)cc1,inactive: 13.2%
5,O=C(NCC1(N2CCCCC2)CCCCC1)c1cc([N+](=O)[O-])ccc1Cl,inactive: 32.5%
6,CN1[C@@H]2CC[C@H]1CC(OC(=O)C(O)(c1ccccc1)c1ccccc1)C2 (stereo partly specified),inactive: 18.8%
7,O=C(NCC1(N2CCCCC2)CCCCC1)c1cc(F)c(F)cc1Cl,inactive: 5.8%
8,C=CCN1CCN(CCOC(=O)C(O)(c2ccccc2)c2ccccc2)CC1,inactive: 4.2%
9,O=C(NCC1(N2CCCCC2)CCCCC1)c1cccc(Br)c1,inactive: 16.3%
10,CCN1CCCC(OC(=O)C2(O)c3ccccc3C=Cc3ccccc32)C1 (stereo unspecified),inactive: 16.7%
11,Cc1cc(C(=O)NCC2(N3CCCCC3)CCCCC2)ccc1[N+](=O)[O-],inactive: 17.4%
12,COc1ccc(C(=O)NCC2(N(C)C)CCCCC2)cc1,inactive: 14.1%
13,CN(C)c1ccc(C(=O)NCC2(N(C)C)CCCCC2)cc1,inactive: 13.4%
14,CN(C)C1CCCC1OC(=O)C(O)(c1ccccc1)c1ccccc1 (stereo unspecified),inactive: 8.7%
15,Cc1ccccc1C(=O)NCC1(N2CCCCC2)CCCCC1,inactive: 10.1%
16,COc1ccc(Cl)cc1C(=O)NCC1(N(C)C)CCCCC1,inactive: 6.1%
17,COc1cccc(C(=O)NCC2(N3CCCCC3)CCCCC2)c1,inactive: 13.8%
18,O=C(NCC1(N2CCCCC2)CCCCC1)c1cccc(Cl)c1,inactive: 16.7%
19,CN(C)C1(CNC(=O)c2ccc(Br)cc2)CCCCC1,inactive: 9.5%
20,COc1cc(C(=O)NCC2(N(C)C)CCCCC2)c([N+](=O)[O-])cc1OC,inactive: 17.2%
21,COc1ccc(Br)c(C(=O)NCC2(N3CCCCC3)CCCCC2)c1,inactive: 18.5%
22,C=C(C)C#CC(O)(C(=O)OC1CCN(C)CC1)c1ccccc1 (stereo unspecified),inactive: 13.5%
23,CN(C)c1cccc(C(=O)NCC2(N(C)C)CCCCC2)c1,inactive: -145%
24,O=C(OCCN1CCCC1)C(O)(c1ccccc1)c1ccccc1,inactive: 19.9%
25,CC(C)Oc1ccc(C(=O)NCC2(N(C)C)CCCCC2)cc1,inactive: 18.2%
26,O=C(OC1CN2CCC1CC2)C(CO)(c1ccccc1)c1ccccc1 (stereo unspecified),inactive: 23.1%
